The source of these data is patent US20070191336A1 (priority 2003, published 2007).

Amino acid sequences for entries named in this document (tags omitted).
UniProt Q16539, whole entry: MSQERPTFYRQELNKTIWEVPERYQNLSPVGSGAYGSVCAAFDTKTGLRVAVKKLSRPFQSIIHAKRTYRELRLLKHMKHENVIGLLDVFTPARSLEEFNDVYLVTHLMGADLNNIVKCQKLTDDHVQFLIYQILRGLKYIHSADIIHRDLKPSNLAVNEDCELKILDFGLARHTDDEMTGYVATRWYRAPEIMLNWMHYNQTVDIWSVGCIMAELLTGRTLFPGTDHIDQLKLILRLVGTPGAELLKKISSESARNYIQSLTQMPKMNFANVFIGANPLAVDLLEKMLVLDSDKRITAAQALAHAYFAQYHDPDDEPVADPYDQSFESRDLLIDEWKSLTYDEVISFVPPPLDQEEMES

One assay deals with T1, phospho p-38 alpha kinase (Homo sapiens, UniProt Q16539).
T1 construct: purchased Panvera
Briefly: P-38 alpha kinase assay (spectrophotometric, pyruvate kinase/lactate dehydrogenase coupled). It is filed as biochemical. As to conditions: Table 2; rates from […] to 2 h time frame. As for the experimental part:
In this assay, the oxidation of NADH was continuously measured spectrophometrically. […] The reaction was initiated by adding ATP. The absorption at 340 nm was monitored continuously for up to 4 hours at 30° C. on Polarstar Optima plate reader (BMG). The kinase activity (reaction rate) was calculated from the slope at the time frame from 1.5 h to 2 h.
For inhibition determinations, test compounds were incubated with the reaction mixture for ˜5 min before adding ATP to start the reaction. […] IC50 values were calculated from a series of % inhibition values determined at a range of concentrations of each inhibitor using Prism to process the data and fit inhibition curves. Generally, the rates obtained at the time frame of 1.5 h to 2 h were used for these calculations.
One may read the IC50 as the concentration needed to halve the response being measured. `COc1ccc(-n2nc(C(C)(C)C)cc2NC(=O)Nc2ccc(Cl)cc2)cc1` [Example 53, 1-{3-tert-butyl-1-(4-methoxyphenyl)-1H-pyrazol-5-yl}-3-(4-chlorophenyl)urea] yielded an IC50 of 109 nM.
Still for that read-out and setting: in the case of `CC1(C)C(=O)NN(Cc2cccc(-n3nc(C(C)(C)C)cc3NC(=O)Nc3ccc(Cl)cc3)c2)C1=O` [Example 14, 1-(3-tert-butyl-1-{3-[(4,4-dimethyl-3,5-dioxopyrazolidin-1-yl)methyl]phenyl}-1H-pyrazol-5-yl)-3-(4-chlorophenyl)urea] it was 96 nM.

Still in this assay, the particulars now being: Table 3; rates from […] to 2 h time frame.
`CC(C)(C)c1cc(NC(=O)Nc2ccccc2)n(-c2cccc(Oc3ccccc3)c2)n1` [Example 299, 1-[3-tert-, butyl-1-(3-phenoxyphenyl)-1H-pyrazol-5-yl]-3-phenylurea]: the IC50 was 2300 nM.
Same read-out and setting: under `CC(C)(C)c1cc(NC(=O)Nc2ccc(Cl)cc2)n(-c2ccc(CO)cc2)n1` [Example 207, 1-[5-t-butyl-2-(4-hydroxymethyl-phenyl)-2H-pyrazol-3-yl]-3-(4-chloro-phenyl)-urea] stands 33 nM; under `CCOC(=O)CCc1ccc(-n2nc(C(C)(C)C)cc2NC(=O)Nc2cccc3ccccc23)cc1` [Example 296, ethyl 3-(4-(3-tert-butyl-5-(3-(naphthalen-1-yl)ureido)-1H-pyrazol-1-yl)phenyl)propanoate], 284 nM; under `CC(C)(C)c1cc(NC(=O)Nc2cccc3ccccc23)n(-c2cccc(Cn3c(=O)sn(-c4ccccc4)c3=O)c2)n1` [Example 286, 1-(3-t-butyl-1-(3-((3,5-dioxo-2-phenyl-1,2,4-thiadiazolidin-4-yl)methyl)phenyl)-1H-pyrazol-5-yl)-3-(naphthalen-1-yl)urea], 79 nM.
